{"source": "patent US7022719B2", "about": "“Preventing and reversing the formation of advance glycosylation endproducts” (Alteon, Inc., priority 1995, dated 2006)", "tested_on": "cross-linking of glycated bovine serum albumin (AGE-BSA) to rat tail tendon collagen", "test": "Cross-linking Inhibition Assay", "data": [{"smiles": "Cc1csc[n+]1CC(=O)c1ccc(Br)cc1.[Br-]", "note": "[3-(2-[4^1-bromophenyl)-2-oxoethyl)-4-methyl-thiazolium bromide]", "values": [{"measurement": "Relative Cross-link Inhibition (at 10 mM)", "value": 37, "unit": "%"}]}]}
